Measurements from US20240307361A1, “METHOD FOR DIAGNOSING AND TREATING IRRITABLE BOWEL SYNDROME” (Centre for Chinese Herbal Medicine Drug Development Limited, priority 2023, published 2024).

Biological target: T1, TPH1 (Mus musculus, UniProt P17532)
T1 construct: from tissue; host or cells: living mice (gut/enterochromaffin cells)
T1 sequence (P17532 1-447): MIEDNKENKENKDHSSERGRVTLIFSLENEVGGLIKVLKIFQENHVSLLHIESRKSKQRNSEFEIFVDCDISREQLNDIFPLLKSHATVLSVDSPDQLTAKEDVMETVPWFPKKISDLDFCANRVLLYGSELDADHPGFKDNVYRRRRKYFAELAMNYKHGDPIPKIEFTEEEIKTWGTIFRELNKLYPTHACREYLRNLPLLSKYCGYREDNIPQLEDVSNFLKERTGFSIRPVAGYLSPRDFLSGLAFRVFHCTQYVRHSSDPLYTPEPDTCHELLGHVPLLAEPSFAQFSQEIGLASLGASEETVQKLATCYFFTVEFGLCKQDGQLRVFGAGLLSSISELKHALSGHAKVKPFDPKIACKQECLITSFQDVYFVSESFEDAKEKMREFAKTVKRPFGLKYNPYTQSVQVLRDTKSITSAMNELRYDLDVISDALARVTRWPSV
Assay: TPH1 inhibitor LX-1031 in phenethylamine-treated mice
Type: in vivo
Conditions: LX-1031 50 mg/kg
Method: To study phenethylamine and tryptamine effects on 5-HT production, phenethylamine and tryptamine at a dosage of 2 mg/kg, 5 mg/kg and 10 mg/kg (dissolved in 0.5% CMC-Na, sodium carboxymethyl cellulose) were administered to mice by oral gavage. Mice treated with/without phenethylamine and tryptamine were sacrificed under isoflurane anesthesia. Biological samples including serum, duodenum, ileum, proximal colon and distal colon tissues and luminal contents in each intestinal segments were collected at indicated dosages and times and stored at −80° C. until analysis.
For the fecal pellet water content test, 1.5 mL Eppendorf tubes were pre-weighed and used to collect fecal pellets from mice immediately after defecation. The tubes were then closed to measure wet weight. […] Fecal pellet water content was measured by subtracting the dry weight from the wet weight and normalizing it to the wet pellet mass. Fecal pellets from mice were also counted within 2 h of the defecation frequency test.
Carmine red assay: Mice were administered 300 μL of 6% carmine red solution (prepared by 0.5% methylcellulose) by oral gavage to measure the GI transit time after treatment with phenethylamine at the indicated dosages. […] The total time taken for the appearance of the first red pellet after oral gavage was recorded as gut transit time.

Question: How did the “phenethylamine-induced increase in 5-HT levels” value (mice, phenethylamine 10 mg/kg, p<0.01) turn out when LX-1031 was run?
Answer: The value was “effectively inhibited the phenethylamine-induced increase in 5-HT levels”.

Question: What about the “diarrhea-like symptoms (fecal water content, GI transit time)” value (phenethylamine-treated mice, p<0.05) of the same substance?
Answer: Its value is “significantly improved diarrhea-like symptoms”.
